{"source": "paper PMC6936329", "about": "(Cell chemical biology, 2019)", "key": {"MCF7 cells": {"test_system": "MCF7 cells", "test": "Phospho-pRb immunofluorescence and cell cycle analysis"}, "[1]": {"test_system": "468 DNA-tagged recombinant kinase library", "test": "KINOMEscan profiling", "format": "binding", "conditions": "0.1 and 1 μM"}, "[2]": {"test_system": "34 breast cancer cell lines", "test": "GR dose-response measurements", "conditions": "on average"}, "[3]": {"test_system": "kinases in mixed cell lysate", "test": "Multiplexed inhibitor bead mass spectrometry"}}, "data": [{"smiles": "CCN1CCN(Cc2ccc(Nc3ncc(F)c(-c4cc(F)c5nc(C)n(C(C)C)c5c4)n3)nc2)CC1", "note": "[abemaciclib]", "values": [{"measurement": "concentration at which pRb phosphorylation remained low", "setting": "MCF7 cells", "result": "≥ 1", "unit": "μM"}, {"measurement": "selectivity among CDK4/6 inhibitors", "setting": "[1]", "result": "least"}, {"measurement": "concentrations at which cytotoxicity was observed", "setting": "pRb-deficient cell lines", "result": "≥ 1", "unit": "µM"}, {"measurement": "fold more potent than palbociclib at inducing cytostasis", "setting": "[2]", "result": "~ 5.5 fold"}, {"measurement": "fold less potent than alvocidib", "setting": "CDK7/cyclin H", "result": "~ 10 fold"}, {"measurement": "selectivity among CDK4/6 inhibitors tested", "setting": "[3]", "result": "least"}, {"measurement": "fold less potent than alvocidib", "setting": "CDK9/cyclin K/T1", "result": "~ 10 fold"}, {"measurement": "fold less potent than alvocidib", "setting": "CDK1/cyclin B", "result": "~ 10 fold"}]}]}
